In this test the test system is platelet rich plasma (induced aggregation). Kind of test: Inhibition of Platelet Aggregation Following Oral Administration (Ex vivo method). Type of test: in vivo. As to conditions: Rattus norvegicus, rats, oral (gavage), 2 hours after dosing, vs. ADP. The procedure:
Inhibition of Platelet Aggregation Following Oral Administration
This test is sometimes referred to in the art as an Ex vivo method and was initially described by Fleming, et al., Arch. Int. Pharmacodyn. Ther., 199, 164 (1972). Briefly, the assay is essentially carried out as follows.
Aggregometry is performed in vitro as previously described on platelet rich plasma samples obtained from rats dosed with either test compounds or the vehicle. In all cases, activity is determined 2 hours after the drug is administered orally at various doses by gavage as a suspension in […] plus a few drops of Tween 20.

The term ED50 denotes the midpoint of the dose-response relation. The low end stands for an effect at a small dose, the high end for a need for a large dose.

`O=c1[nH]c2cc3cc(N4CCOCC4)ccc3nc2[nH]1` [Example 10, 1,3-Dihydro-7-(4-morpholinyl)-2H-imidazo[4,5-b]quinolin-2-one] had an ED50 of 12.2 mg/kg.

(Values after patent publication US4701459A, “7-amino-1,3-dihydro-2H-imidazo[4,5-b]quinolin 2-ones and method for inhibiting phosphodiesterase and blood platelet aggregation” (Bristol-Myers Company, priority 1986, dated 1987).)
